The values that follow come from patent publication EP4825857A1, “TRICYCLIC FUSED HETEROCYCLIC PDE3/4 DUAL INHIBITOR, AND PREPARATION AND USE THEREFOR” (dated 2026).

A value given as a limit tells only on which side of the number the result lay.

Data set [1] can be described thus: Liver microsomal incubation assay (metabolic stability). Particulars: for Metabolic Type (Fast/Moderate/ Slow) / CLint / T1/2 / T120 - Remaining (% of 0 min) / T1/2 (min), value in parentheses / CLint (mL/min/kg), value in parentheses: human liver microsomes; for CLint / T1/2 / T120 - Remaining (% of 0 min) / T1/2 (min), value in parentheses / CLint (mL/min/kg), value in parentheses: 0.5 µM; for T120 - Remaining (% of 0 min) / T120 NC - Remaining (% of 0 min- NC): 120 min; for T120 - Remaining (% of 0 min): NADPH and UDPGA; for T1/2 (min), value in parentheses: figure printed in parentheses behind the bound <30; for CLint (mL/min/kg), value in parentheses: figure printed in parentheses behind the bound >57.9; for T120 NC - Remaining (% of 0 min- NC): negative control without coenzyme (test compound + microsomes + buffer). On the procedure:
Test Objective: To evaluate the in vitro metabolic stability of RPL-554, Compound 1-2, Compound 10-2, Compound 67, and Compound 69.
Test System: Human liver microsomes.
Incubation conditions: test compound incubation time, 0, 30, 60, and 120 min; test compound final concentration, 0.5 µM; microsomal protein concentration, 0.5 mg/mL; NADPH and UDPGA concentrations, 1.0 mM; temperature, 37.0 °C.
A mixed working solution of testosterone and 7-hydroxycoumarin was prepared.
A mixed solution of NADPH and UDPGA was prepared and prewarmed at 37 °C in a shaking water bath before use.
Liver microsomes were thawed and diluted with a buffer.
The prepared test compound solution and liver microsome suspension were added to each well of a incubation plate.
The experiment was divided into three groups, and the corresponding components were added to each group. Test group=test compound + microsomes + coenzyme. Test compound negative control group (NC)=test compound + microsomes + buffer. Positive control group=phase I and phase II substrates + microsomes + coenzyme.
All samples were incubated at 37 °C. At each designated termination time point, each reaction was stopped by adding pre-chilled methanol containing an internal standard, and the time was recorded.
After thorough mixing, all samples were centrifuged at 4,000 rpm for 10 min. The supernatants were collected and analyzed by LC-MS/MS.

Data set [2] is described as follows: In vitro plasma protein binding (equilibrium dialysis). The settings on record: human plasma; for Protein Binding Ratio (%) Average / Protein Binding Ratio (%) Sample 1 / Protein Binding Ratio (%) Sample 2: 5 h, 37.0 °C. On the procedure:
Test Objective: To investigate the in vitro human plasma protein binding of RPL-554, Compound 1-2, Compound 10-2, Compound 67, and Compound 69.
Incubation conditions: test compound incubation time, 5 h; test compound final concentration, 0.5 µM; species, human; temperature, 37.0 °C.
Stock solutions of the test compounds and Warfarin were prepared, diluted, and added to the plasma matrix so that the final concentration of each test compound in the system was 10 µM, and the final concentration of Warfarin was 1 µM. Immediately after preparation, 50 µL of the sample was transferred into termination solution, and 50 µL of a blank buffer was added to obtain the T0 sample for recovery calculation.
For the test groups and system control group, 100 µL of plasma solution containing Warfarin or a test compound, or 100 µL of a buffer solution containing a test compound, was added to the donor chamber of an equilibrium dialysis device.
The donor and receiver chambers were incubated at 37 °C and 100 rpm for 5 h.
For the stability test group, each test compound was incubated with plasma or a blank buffer for 0 or 5 h.
At the incubation, 50 µL sample was collected from the donor chamber for each group, and 50 µL of a blank buffer was added. In addition, 50 µL sample was collected from the receiver chamber, and 50 µL of blank plasma was added, so that the final volume of each sample was 100 µL.
Methanol containing an internal standard was added to all samples to precipitate proteins. After centrifugation, the supernatant was collected, and the concentrations of the test compounds and Warfarin in the samples were determined by LC-MS/MS using relative quantification.
(In general: In equilibrium dialysis only unbound substance equilibrates across the membrane.)

Data set [3] has as its system Caco-2 cells. In words: Caco 2 cell permeability assay. The settings on record: for Recovery (%): Caco-2, 1 µM; for Recovery (%) / Papp/ 10^-6 cm/s: 2 h; for Papp/ 10^-6 cm/s: Caco-2, A-B, 1 µM, 37.0 °C; for Papp (A-B): Caco-2, test concentration of 1 µM. The method, then: Test Objective: To evaluate the Caco2 cell permeability to RPL-554, Compound 1-2, Compound 10-2, Compound 67, and Compound 69.
Cell Line: Human colorectal adenocarcinoma cell line.
Incubation conditions: Test system, Caco-2 cells; incubation time, 2 h; test compound final concentration, 1 µM; temperature, 37.0 °C.
Quality control before the permeability assay: Before the assay, the transepithelial electrical resistance of the cells was measured using a resistance meter, and the apparent transepithelial resistance of the cell monolayer was calculated.
Permeability assay: Before the assay, the culture medium was aspirated from the culture plate, and the cells were washed three times with HBSS buffer prewarmed at 37°C (Apical side and Basal side); After the buffer in the plate was aspirated, 800 µL of HBSS buffer prewarmed at 37 °C was added to the B side, and 500 µL of propranolol solution (PC), nadolol solution (SC), or a test compound solution prewarmed at 37 °C was added to A side. A 100 µL solution was then taken from the A side as the 0 h apical sample and stored at -20 °C until analysis. The culture plate was incubated at 37°C for 120 min. At the end of incubation, a 100 µL solution was collected from each sample at both A side and B side as the 120 min sample and stored at -20 °C until analysis. All samples were mixed with internal-standard-containing methanol at a ratio of 1:4 and analyzed by LC-MS/MS. After incubation, 100 µL was taken from the basal side and transferred to a black 96-well plate. An LFY standard curve was prepared, and fluorescence was measured using a fluorescence microplate reader at an excitation wavelength of 485 nm.
Note: The A side contained 10 µM Lucifer Yellow. All test compound buffers contained 0.1% BSA.

In data set [4] the test system is Salmonella typhimurium TA97a, TA98, TA100, TA102, and TA1535. Nature of the data set: Mutagenicity and bacterial toxicity in Salmonella typhimurium (reverse mutation, dose-range finding). The settings on record: 5000 to 50 µg/plate; for mutagenic activity: in the absence or presence of metabolic activation (S9); for bacterial toxicity: in the presence and absence of metabolic activation (S9). The method, then: The bacterial toxicity and potential mutagenicity of Compound 1-2, Compound 10-2, Compound 12-1, and Compound 19 to Salmonella typhimurium were evaluated separately to determine the optimal dose ranges for subsequent mutagenesis assays in Salmonella typhimurium.
The assay was performed using five histidine auxotrophic Salmonella typhimurium strains, namely TA97a, TA98, TA100, TA102, and TA1535, supplied by JOINN Laboratories (Suzhou) Co., Ltd. Each bacterial strain system was treated with the test compound at doses of 5000, 1500, 500, 150, and 50 µg/plate in the absence or presence of metabolic activation. A vehicle control group, DMSO, was also included. For each test point, duplicate plates were set both in the presence of metabolic activation (+S9, with S9 mix) and in the absence of metabolic activation (-S9, without S9 mix). Strains TA97a, TA98, TA100, and TA1535 were incubated at 37°C for approximately 48 h, and strain TA102 was incubated at 37°C for approximately 72 h. Revertant colonies were counted for each plate, and the background lawn was examined microscopically. […] For strains TA98, TA102, and TA1535, toxicity could not be evaluated with 5000 µg/plate of the test compound because precipitation was observed on the plates. No obvious bacterial toxicity was observed under the other test conditions. […] For strains TA97a, TA98, TA100, TA102, and TA1535 with 5000 µg/plate of the test compound, for strains TA97a, TA98, TA102, and TA1535 with 1500 µg/plate of the test compound, and for strain TA102 with 500 µg/plate of the test compound, colonies could not be counted due to precipitation on the plates, and toxicity could not be evaluated. No obvious bacterial toxicity was observed under the other test conditions. […] For strains TA97a, TA98, and TA102 both in the presence and absence of metabolic activation, and for strain TA100 in the presence of metabolic activation, colonies could not be counted due to precipitation, and toxicity could not be evaluated. No obvious bacterial toxicity was observed under the other test conditions. […] No obvious bacterial toxicity was observed under the other test conditions.

For `COc1cc2c(cc1OC)-c1cc(N(c3c(C)cc(C)cc3C)C(C)CNC(=O)c3cccc(N)n3)nc(=O)n1CC2` (stereo not drawn), in data set [1], the “Metabolic Type (Fast/Moderate/ Slow)” value was “Fast”, the “CLint” value is listed as above 57.9 mL/min/kg, the “T1/2” value was below 30 min and the “T120 - Remaining (% of 0 min)” value is listed as 8.76 % of 0 min. Also, in data set [1], the “T1/2 (min), value in parentheses” value was determined as 9.7 min; the “CLint (mL/min/kg), value in parentheses” value is 179 mL/min/kg; the “T120 NC - Remaining (% of 0 min- NC)” value was 56.6 % of 0 min- NC. Also, in data set [2], the “plasma protein binding ratio (in words)” value was “high plasma protein binding ratio”, the “Protein Binding Ratio (%) Average” value is recorded as 98.4%, the “Protein Binding Ratio (%) Sample 1” value is 98.5% and the “Protein Binding Ratio (%) Sample 2” value turned out to be 98.4%. Further, in data set [3], the “Recovery (%)” value was found to be 75.9%, the “Papp/ 10^-6 cm/s” value is 0.422 10^-6 cm/s and the “Papp (A-B)” value is 0.422 ×10⁻⁶ cm/s.

For `COc1cc2c(cc1OC)-c1cc(=Nc3c(C)cc(C)cc3C)n(CCNC(N)=O)c(=O)n1CC2`, in data set [1], the “Metabolic Type (Fast/Moderate/ Slow)” value was “Fast”, the “CLint” value is above 57.9 mL/min/kg, the “T1/2” value was below 30 min and the “T120 - Remaining (% of 0 min)” value is on record as 5.10 % of 0 min. In addition, in data set [1], the “T1/2 (min), value in parentheses” value was 15.1 min; the “CLint (mL/min/kg), value in parentheses” value is on record as 115 mL/min/kg; the “T120 NC - Remaining (% of 0 min- NC)” value is 86.3 % of 0 min- NC. For the same compound, in data set [2], the “plasma protein binding ratio (in words)” value is reported as “high plasma protein binding ratio”, the “Protein Binding Ratio (%) Average” value came to 92.4%, the “Protein Binding Ratio (%) Sample 1” value is recorded as 91.8% and the “Protein Binding Ratio (%) Sample 2” value came out at 92.9%. For the same compound, in data set [3], the “Recovery (%)” value was found to be 116%, the “Papp/ 10^-6 cm/s” value is given as 0.643 10^-6 cm/s and the “Papp (A-B)” value came out at 0.643 ×10⁻⁶ cm/s.

For `COc1cc2c(cc1OC)-c1cc(N(c3c(C)cc(C)cc3C)C(C)CNC(N)=O)nc(=O)n1CC2` (single isomer, unassigned) [Compound 1-2], in data set [4], the mutagenic activity result is listed as “no mutagenic activity”; the bacterial toxicity entry was “bacterial toxicity was observed in strains TA97a and TA100 with 5000 µg/plate”. In data set [1], the “Metabolic Type (Fast/Moderate/ Slow)” value was “Moderate”, the “CLint” value turned out to be 27.1 mL/min/kg, the “T1/2” value came out at 64.2 min and the “T120 - Remaining (% of 0 min)” value is recorded as 27.5 % of 0 min. Moreover, the “T120 NC - Remaining (% of 0 min- NC)” value in data set [1] is 86.1 % of 0 min- NC. Further, in data set [2], the “plasma protein binding ratio (in words)” value is listed as “high plasma protein binding ratio”, the “Protein Binding Ratio (%) Average” value is 92.3%, the “Protein Binding Ratio (%) Sample 1” value was determined as 93.9% and the “Protein Binding Ratio (%) Sample 2” value is recorded as 90.6%. Moreover, in data set [3], the “Recovery (%)” value stood at 97.0%, the “Papp/ 10^-6 cm/s” value is recorded as 0.412 10^-6 cm/s and the “Papp (A-B)” value amounted to 0.412 ×10⁻⁶ cm/s.

For the compound `COc1cc2c(cc1OC)-c1cc(N(c3c(C)cc(C)cc3C)C(C)CNC(=O)c3[nH]nnc3C)nc(=O)n1CC2` (single isomer, unassigned) [Compound 12-1], in data set [4], the mutagenic activity result is on record as “no mutagenic activity” and the bacterial toxicity result is “No obvious bacterial toxicity was observed under the other test conditions”.

For the compound `COc1cc2c(cc1OC)-c1cc(N(c3c(C)cc(C)cc3C)C(C)CNC(=O)c3cc(N)ccn3)nc(=O)n1CC2` (stereo not drawn), in data set [1], the “Metabolic Type (Fast/Moderate/ Slow)” value is listed as “Fast”, the “CLint” value was above 57.9 mL/min/kg, the “T1/2” value is given as below 30 min and the “T120 - Remaining (% of 0 min)” value was 10.9 % of 0 min. Moreover, in data set [1], the “T1/2 (min), value in parentheses” value amounted to 12.3 min; the “CLint (mL/min/kg), value in parentheses” value amounted to 142 mL/min/kg; the “T120 NC - Remaining (% of 0 min- NC)” value is reported as 91.0 % of 0 min- NC. Further, in data set [2], the “plasma protein binding ratio (in words)” value was “high plasma protein binding ratio”, the “Protein Binding Ratio (%) Average” value came to 97.9%, the “Protein Binding Ratio (%) Sample 1” value was 98.0% and the “Protein Binding Ratio (%) Sample 2” value is 97.7%. Besides, in data set [3], the “Recovery (%)” value came to 117%, the “Papp/ 10^-6 cm/s” value is 0.594 10^-6 cm/s and the “Papp (A-B)” value worked out at 0.594 ×10⁻⁶ cm/s.

Take `COc1cc2c(cc1OC)-c1cc(N(c3c(C)cc(C)cc3C)C(C)CNC(=O)c3ccccn3)nc(=O)n1CC2` (stereo not drawn): in data set [4], the mutagenic activity result was “no mutagenic activity” and the bacterial toxicity result was “No obvious bacterial toxicity was observed under the other test conditions”.
